Source: PubChem BioAssay AID687028 (Broad Institute, 2013)
The entries are a selection whose mix differs from that of the whole data set. Potency and affinity values are given separately. Active and inactive are the calls of the source. The rule behind the calls is not given here.

assay: A549 cell toxicity, dose response, cytotoxicity control, plate reader, cherry-pick samples (AID 687028); conditions: at 19.5 µM (top of the series);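 note: cells incubated with compound for three days before reading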

| Structure (SMILES) | activity change, negative = toxicity |
| --- | --- |
| CCOC(=O)c1ccc(NP(C)(=O)Oc2ccc(Cl)cc2)cc1 (stereo unspecified) | inactive: -2.72% |
